For the assay, the target named is exTrkB (Homo sapiens, UniProt Q16620). Description: MST binding affinity (Kd) determination. The conditions noted are these: non-binding compounds given as 0. How it is done: The gene encoding the extracellular domain of the human TrkB receptor (exTrkB), residues 1−430, was cloned into the pCMV2 expression vector. Protein expression was performed in suspension-cultivated mammalian ExpiCHO-S cells using the ExpiFectamine (Thermo Scientific, Thermo Fisher Scientific, Waltham, MA, USA) transfection reagent. The secreted protein was purified using a four-step protocol. Clarified culture medium was precipitated with ammonium sulfate added to a final concentration of 1.5 M and centrifuged (235,000× g, 60 min at 4 °C). The supernatant after centrifugation was applied on a HiTrap Phenyl column (GE Healthcare, Chicago, IL, USA) equilibrated with buffer A (25 mM Tris, 1 mM DTT; pH 7.5) with 1.5 M ammonium sulfate. Bound proteins were eluted with a linear gradient of buffer A. The eluted proteins were dialyzed overnight in buffer A and loaded on a CaptoQ ImpRes column (GE Healthcare) equilibrated with buffer A with 50 mM NaCl. The bound proteins were eluted with a linear gradient of buffer A with 1 M NaCl. The fractions containing exTrkB protein were pooled, and MnCl2 and CaCl2 (1mM final concentration each) were added. […] The protein concentration was determined from the absorption at 280 nm using an UV NanoDrop 1000 spectrophotometer (Thermo Scientific).
The exTrkB was labeled with a Monolith Protein Labeling Kit RED-NHS 2nd Generation (NanoTemper Technologies GmbH, Munich, Germany) according to the manufacturer’s protocol. The labelling efficiency was always determined spectrophotometrically with NanoPhotometer® NP80 (Impel) in line with the manufacturer’s recommendations. […]
For primary screening (single-point MST experiments for signal amplitude determination), each of the 987 screened compounds were diluted in MST buffer + 0.1% Tween20 to a final concentration of 0.5 mM. […] The experiments were performed using nano-blue excitation, LED light adjusted to 20% excitation power, and MST power set to medium, and the fluorescence signal during thermophoresis was detected after 30 s. […]

Sequences of proteins named here, by UniProt entry; tags and fusion partners are left off. Residues count along the entry.
UniProt Q16620, 32-430 limits assumed: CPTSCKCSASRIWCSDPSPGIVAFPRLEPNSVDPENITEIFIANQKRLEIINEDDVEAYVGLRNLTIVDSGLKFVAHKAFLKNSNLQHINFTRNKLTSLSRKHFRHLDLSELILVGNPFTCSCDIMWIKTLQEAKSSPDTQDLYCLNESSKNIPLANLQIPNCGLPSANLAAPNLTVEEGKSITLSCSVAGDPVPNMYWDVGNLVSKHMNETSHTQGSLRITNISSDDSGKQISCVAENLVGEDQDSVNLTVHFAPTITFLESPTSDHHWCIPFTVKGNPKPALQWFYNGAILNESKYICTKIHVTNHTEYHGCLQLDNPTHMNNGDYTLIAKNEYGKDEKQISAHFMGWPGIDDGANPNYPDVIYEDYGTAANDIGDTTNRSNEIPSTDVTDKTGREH

pKd: −log10 of the molar value.

By pKd is commonly meant the negative decadic logarithm of the Kd, by convention in mol/L.

For `CC(C)=CCc1cccc2c(C3=C(O)C(=O)C=C(O)C3=O)c[nH]c12`, the pKd was 4.35.
The molecule `CC(C)=CCc1cccc2c(C3=C(O)C(=O)C(c4c[nH]c5ccccc45)=C(O)C3=O)c[nH]c12` had a pKd of 4.60.

For the origin of these results see paper PMC8398766, “Do Small Molecules Activate the TrkB Receptor in the Same Manner as BDNF? Limitations of Published TrkB Low Molecular Agonists and Screening for Novel TrkB Orthosteric Agonists” (Pharmaceuticals, 2021).
